Experimental data published in patent US6927214B1 (Novo Nordisk A/S, priority 1999, dated 2005).

The chains behind the UniProt entries cited, without tags or fusion partners. Residues count along the entry.
UniProt P43220, 24-463: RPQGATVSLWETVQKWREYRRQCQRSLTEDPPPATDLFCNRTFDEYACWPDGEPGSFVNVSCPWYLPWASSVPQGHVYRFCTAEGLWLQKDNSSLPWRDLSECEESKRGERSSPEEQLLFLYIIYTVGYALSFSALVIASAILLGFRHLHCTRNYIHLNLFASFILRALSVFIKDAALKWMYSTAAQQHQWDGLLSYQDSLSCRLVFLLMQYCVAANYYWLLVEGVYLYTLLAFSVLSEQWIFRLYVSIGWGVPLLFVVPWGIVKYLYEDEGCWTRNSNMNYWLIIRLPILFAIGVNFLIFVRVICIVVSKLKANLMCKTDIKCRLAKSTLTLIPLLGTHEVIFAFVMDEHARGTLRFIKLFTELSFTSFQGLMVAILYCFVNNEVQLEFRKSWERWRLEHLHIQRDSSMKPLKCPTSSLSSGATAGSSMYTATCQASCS

Molecular target: human GLP-1 receptor (Homo sapiens, UniProt P43220)
Experiment: Saturation experiments with labelled GLP-1 tracer on plasma membranes, with or without example 2
Format: binding
Set-up: expressed in transfected cells; host or cells: BHK (baby hamster kidney) cells; plasma membranes prepared from them

Bmax (absence of example 2, 30° C., first of two binding sites (low affinity)): 6.5 pM
Bmax (absence of example 2, 30° C., the other of two binding sites (high affinity)): 2.0 pM
Bmax (presence of 10 μM example 2, 30° C., one binding site): 7.5 pM
Substance: GLP-1
